Literature values, collected in article PMC4529489.

Amino acid sequences for entries named in this document (tags omitted). Residues count along the entry.
UniProt Q15819, 2-145: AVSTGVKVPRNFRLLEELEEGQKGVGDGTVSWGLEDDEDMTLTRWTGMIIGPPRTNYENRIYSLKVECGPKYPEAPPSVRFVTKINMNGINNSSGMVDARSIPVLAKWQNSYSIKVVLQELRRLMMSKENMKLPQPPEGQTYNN

Target: Ube2V2 (Homo sapiens) (UniProt Q15819)
Conditions: cited from earlier work

## Ubiquitin (from UniProt P0CG47)
  Kd: 30 µM
